Patent publication US20250180543A1, “COMPOSITIONS AND METHODS OF A HIGH-THROUGHPUT SCREEN TO IDENTIFY COMPOUNDS THAT ALTER MACROPHAGE-MEDIATED CYTOTOXICITY OF TARGET CELLS” (Whitehead Institute for Biomedical Research, priority 2022, published 2025)

System: GFP+ MGH134-1 cells
Experiment: Long-term co-culture assay, primary human macrophages + GFP+ MGH134-1 cells
Format: cell-based
Conditions: secondary EGFR mutation
Method: Long-term co-culture of primary human macrophages was performed using GFP+ target cells. Cells were cultured in IMDM supplemented with 10% ultra-low IgG fetal bovine serum, 100 units/mL penicillin, 100 ug/mL streptomycin, and 292 ug/mL L-glutamine and 20 ng/mL human M-CSF. Purified anti-CD47 antibody clone B6H12 was added at a working concentration of 10 ug/mL. Targeted therapies were added at a final working concentration of 1.0 uM except as otherwise indicated. Cells were then co-cultured for 7-14 days with whole-well imaging of phase contrast and GFP channels performed every 4 hours using an Incucyte S3 system. Automated imaging analysis was performed using Incucyte Analysis Software. Images taken on day 6.5 was used as a standard reference time point for data comparison and statistical analysis. For dose-response experiments, sigmoidal dose-response curves were generated using Prism version 9.2.0 (GraphPad) to determine IC50 parameters.
Long-term co-culture assays were performed by measuring GFP+ area. Data was analyzed by comparing mean GFP+ area between relevant conditions using one-way ANOVA with Holm-Sidak multiple comparison test. Experiments were performed in two independent trials using a minimum of 6-8 donors except as otherwise indicated. IC50 values were calculated by fitting data to sigmoidal dose-response curve using Prism version 9.2.0 (Graphpad).

## COc1cc2ncnc(Nc3ccc(F)c(Cl)c3)c2cc1OCCCN1CCOCC1 [gefitinib]
  sensitivity of MGH134 cells to EGFR TKI: resistant
